Values quoted from earlier work, collected in PMC8882856.

Experiments:
[1] = target: human β3‐adrenoceptor; conditions: read-out: β3 affinity; ref [31], [32]; cited from earlier work
[2] = target: human α1A‐adrenoceptor; conditions: read-out: α1A‐adrenoceptor affinity; identical whole cell method; ref [33]; cited from earlier work

For `COc1ccccc1OCCNCC(O)COc1cccc2[nH]c3ccccc3c12` (stereo not drawn) [carvedilol], the Kd [1] is given as 5 nM and the Kd [2] is given as 4 nM.

For `CC(CCc1ccccc1)NCC(O)c1ccc(O)c(C(N)=O)c1` (stereo not drawn) [labetolol], the Kd [2] is given as 47 nM.
